The test system of the assay is human μ opioid receptor (hMOR-CHO cells). Put plainly: Total inositol phosphate assay in hMOR-CHO cells. It is filed as cell-based. How it is done: Chinese hamster ovary (CHO) cells stably expressing either the human κ (hKOR-CHO), δ (hDOR-CHO)(L. Toll, Stanford Research Institute, Palo Alto, Calif.) or μ (hMOR-CHO)(G. Uhl, National Institute on Drug Abuse, Baltimore, Md.) opioid receptor were used in the experiments. Cells in 6-well plates were labeled by adding 4 μCi of [^3H]inositol for 24 hr in inositol-free F-10 media, without serum. After labeling, LiCl was added directly to the labeling media at a final concentration of 10 mM. Ligands or peptides were added at the same time. The final volume of each well was 1 mL. The plates were put back in to the incubator at 37° C. for 30 min after which time the medium was aspirated and the plates were washed twice with 1× PBS. Ice-cold 50 mM formic acid, 1 mL, was added to the plates which were placed in the cold room at 4° C. for 30 min. After the incubation, the contents of the plates were applied to Dowex AG1-X8 columns and allowed to flow all the way through the column. The columns were washed, twice each, with 50 and 100 mM formic acid, for a total of four washes, followed by elution of the IP-containing fraction with 3 mL of 1.2 M ammonium formate/0.1 M formic acid. The eluted fraction was mixed with Scintisafe scintillation fluid, for high salt, and counted. The data are represented as the fold increase over control in total inositol phospates. […]

Turning to `CN1CC[C@]23c4c5ccc(O)c4O[C@H]2[C@@H](O)C=C[C@H]3[C@H]1C5.O=S(=O)(O)O` [morphine, Morphine sulfate], the “increase in total IP compared to control” value came to 3 fold.

These data come from patent US8975259B2, “Compositions and methods for inhibiting G protein signaling” (University of Rochester, priority 2007, dated 2015).
